Source: ChEMBL document CHEMBL1132677, “A new structural variation on the methanesulfonylphenyl class of selective cyclooxygenase-2 inhibitors” (Bioorg Med Chem Lett, 1999)

Protein sequences, listed by entry. Tags and fused reporters are not part of them.
UniProt P23219, whole entry: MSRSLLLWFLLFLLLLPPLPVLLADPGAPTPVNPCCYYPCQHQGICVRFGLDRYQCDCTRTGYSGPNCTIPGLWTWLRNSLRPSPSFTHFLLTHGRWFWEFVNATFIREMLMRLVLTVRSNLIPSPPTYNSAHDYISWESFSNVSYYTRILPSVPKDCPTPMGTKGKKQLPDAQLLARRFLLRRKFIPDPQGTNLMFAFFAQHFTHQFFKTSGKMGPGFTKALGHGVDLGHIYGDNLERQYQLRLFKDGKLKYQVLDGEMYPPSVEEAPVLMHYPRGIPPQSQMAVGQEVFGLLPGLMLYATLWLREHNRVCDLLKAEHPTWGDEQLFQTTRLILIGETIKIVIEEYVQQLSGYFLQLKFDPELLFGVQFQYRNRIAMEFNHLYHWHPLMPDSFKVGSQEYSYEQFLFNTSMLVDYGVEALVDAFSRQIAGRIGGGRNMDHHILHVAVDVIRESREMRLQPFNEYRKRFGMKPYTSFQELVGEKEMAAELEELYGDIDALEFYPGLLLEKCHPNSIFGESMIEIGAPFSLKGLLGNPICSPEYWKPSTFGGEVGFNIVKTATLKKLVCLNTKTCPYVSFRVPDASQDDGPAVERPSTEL

Biological target: Prostaglandin G/H synthase 1 (Homo sapiens, UniProt P23219)
Type: tissue-based, Blood

IC50: 58 µM
Structure (SMILES): CC1(C)OC(=O)C(Sc2ccccc2)=C1c1ccc(S(C)(=O)=O)cc1
